Sequences of proteins named here, by UniProt entry; tags and fusion partners are left off.
UniProt P34972, whole entry: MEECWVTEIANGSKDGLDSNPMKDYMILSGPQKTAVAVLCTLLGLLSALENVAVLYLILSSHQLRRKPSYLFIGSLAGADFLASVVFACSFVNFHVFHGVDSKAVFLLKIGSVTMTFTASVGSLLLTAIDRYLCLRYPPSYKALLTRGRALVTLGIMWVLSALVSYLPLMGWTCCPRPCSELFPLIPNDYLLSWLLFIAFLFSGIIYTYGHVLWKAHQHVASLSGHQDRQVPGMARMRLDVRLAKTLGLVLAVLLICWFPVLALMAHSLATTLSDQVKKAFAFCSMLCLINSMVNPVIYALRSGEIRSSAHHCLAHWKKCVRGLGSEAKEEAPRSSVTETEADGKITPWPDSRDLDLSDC

According to ChEMBL document CHEMBL4680278 (J Med Chem, 2020):

Biological target: Cannabinoid receptor 2 (Homo sapiens, UniProt P34972)
Experiment: Displacement of [3H]-HU-243 from CB2 receptor (unknown origin) expressed in African green monkey Cos7 cell membranes incubated for 90 mins by radioligand binding assay
Set-up: species or system Membrane

C=C(C)[C@H]1CCC(C)=C[C@@H]1c1c(O)cc(CCCCC)cc1O
Ki: 203 nM
